Measurements published in paper PMC4831024.

Target: Ku70/Ku80ΔC heterodimer, P12956;P13010
Assay: fluorescence polarisation
Settings: read at the highest Ku concentration, about 16 µM KuΔC; 100 nM fluorescein-labeled peptide; room temperature; 20 mM HEPES pH 7.5, 200 mM NaCl, 0.5 mM TCEP; parent: est. 300; read off a plot

Substance: fluorescein-labelled MRI-A peptide (APLF-like KBM of MRI) W16A
- response: 15 millidegrees
